The target of the assay is T1, human PPAR alpha (Homo sapiens, UniProt Q07869).
T1 construct: expressed in transfected cells; host or cells: CV-1 cells
T1 sequence (Q07869 239-466 limits assumed): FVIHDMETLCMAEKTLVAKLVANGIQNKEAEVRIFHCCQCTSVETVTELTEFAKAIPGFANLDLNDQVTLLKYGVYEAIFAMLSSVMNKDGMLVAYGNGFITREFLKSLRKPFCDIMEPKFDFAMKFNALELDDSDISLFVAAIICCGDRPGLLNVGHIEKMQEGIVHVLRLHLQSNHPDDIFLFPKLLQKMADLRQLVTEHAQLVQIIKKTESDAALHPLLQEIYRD
Description: PPAR transient transfection (transactivation) assay in CV-1 cells, hPPAR alpha. In kind it is cell-based. Conditions: PPAR LBD-GAL4 chimera, SPAP reporter, 24 h with compound, read-out: human αEC50. The text has this:
Compounds were screened for functional potency in transient transfection assays in CV-1 cells for their ability to activate the PPAR subtypes (transactivation assay). A previously established chimeric receptor system was utilized to allow comparison of the relative transcriptional activity of the receptor subtypes on the same target gene and to prevent endogenous receptor activation from complicating the interpretation of results. See, for example, Lehmann, J. M.; Moore, L. B.; Smith-Oliver, T. A.; Wilkison, W. O.; Willson, T. M.; Kliewer, S. A., An antidiabetic thiazolidinedione is a high affinity ligand for peroxisome proliferator-activated receptor γ (PPARγ), J. Biol. Chem., 1995, 270, 12953-6. The ligand binding domains for murine and human PPAR alpha, PPAR gamma, and PPAR delta were each fused to the yeast transcription factor GAL4 DNA binding domain. CV-1 cells were transiently transfected with expression vectors for the respective PPAR chimera along with a reporter construct containing five copies of the GAL4 DNA binding site driving expression of secreted placental alkaline phosphatase (SPAP) and β-galactosidase. After 16 h, the medium was exchanged to DME medium supplemented with 10% delipidated fetal calf serum and the test compound at the appropriate concentration. […]

Take `Cc1nc(-c2ccc(C(F)(F)F)cc2)sc1C(=O)NCc1ccc(OC(C)(C)C(=O)O)cc1` [Example 2, 2-Methyl-2-[4-{[(4-methyl-2-[4-trifluoromethylphenyl]-thiazol-5-ylcarbonyl)amino]methyl}phenoxy]propionic Acid]: the EC50 turned out to be 6 nM.

The values above are taken from US6518290B1, “Substituted oxazoles and thiazoles derivatives as HPPAr alpha activators” (priority 1999, dated 2003).
